Data taken from publication PMC9289666, “Highly Parallelized, Multicolor Optogenetic Recordings of Cellular Activity for Therapeutic Discovery Applications in Ion Channels and Disease-Associated Excitable Cells” (Frontiers in Molecular Neuroscience, 2022).

By UniProt entry, the sequences of proteins in these tests, tags left out.
UniProt Q15858, whole entry: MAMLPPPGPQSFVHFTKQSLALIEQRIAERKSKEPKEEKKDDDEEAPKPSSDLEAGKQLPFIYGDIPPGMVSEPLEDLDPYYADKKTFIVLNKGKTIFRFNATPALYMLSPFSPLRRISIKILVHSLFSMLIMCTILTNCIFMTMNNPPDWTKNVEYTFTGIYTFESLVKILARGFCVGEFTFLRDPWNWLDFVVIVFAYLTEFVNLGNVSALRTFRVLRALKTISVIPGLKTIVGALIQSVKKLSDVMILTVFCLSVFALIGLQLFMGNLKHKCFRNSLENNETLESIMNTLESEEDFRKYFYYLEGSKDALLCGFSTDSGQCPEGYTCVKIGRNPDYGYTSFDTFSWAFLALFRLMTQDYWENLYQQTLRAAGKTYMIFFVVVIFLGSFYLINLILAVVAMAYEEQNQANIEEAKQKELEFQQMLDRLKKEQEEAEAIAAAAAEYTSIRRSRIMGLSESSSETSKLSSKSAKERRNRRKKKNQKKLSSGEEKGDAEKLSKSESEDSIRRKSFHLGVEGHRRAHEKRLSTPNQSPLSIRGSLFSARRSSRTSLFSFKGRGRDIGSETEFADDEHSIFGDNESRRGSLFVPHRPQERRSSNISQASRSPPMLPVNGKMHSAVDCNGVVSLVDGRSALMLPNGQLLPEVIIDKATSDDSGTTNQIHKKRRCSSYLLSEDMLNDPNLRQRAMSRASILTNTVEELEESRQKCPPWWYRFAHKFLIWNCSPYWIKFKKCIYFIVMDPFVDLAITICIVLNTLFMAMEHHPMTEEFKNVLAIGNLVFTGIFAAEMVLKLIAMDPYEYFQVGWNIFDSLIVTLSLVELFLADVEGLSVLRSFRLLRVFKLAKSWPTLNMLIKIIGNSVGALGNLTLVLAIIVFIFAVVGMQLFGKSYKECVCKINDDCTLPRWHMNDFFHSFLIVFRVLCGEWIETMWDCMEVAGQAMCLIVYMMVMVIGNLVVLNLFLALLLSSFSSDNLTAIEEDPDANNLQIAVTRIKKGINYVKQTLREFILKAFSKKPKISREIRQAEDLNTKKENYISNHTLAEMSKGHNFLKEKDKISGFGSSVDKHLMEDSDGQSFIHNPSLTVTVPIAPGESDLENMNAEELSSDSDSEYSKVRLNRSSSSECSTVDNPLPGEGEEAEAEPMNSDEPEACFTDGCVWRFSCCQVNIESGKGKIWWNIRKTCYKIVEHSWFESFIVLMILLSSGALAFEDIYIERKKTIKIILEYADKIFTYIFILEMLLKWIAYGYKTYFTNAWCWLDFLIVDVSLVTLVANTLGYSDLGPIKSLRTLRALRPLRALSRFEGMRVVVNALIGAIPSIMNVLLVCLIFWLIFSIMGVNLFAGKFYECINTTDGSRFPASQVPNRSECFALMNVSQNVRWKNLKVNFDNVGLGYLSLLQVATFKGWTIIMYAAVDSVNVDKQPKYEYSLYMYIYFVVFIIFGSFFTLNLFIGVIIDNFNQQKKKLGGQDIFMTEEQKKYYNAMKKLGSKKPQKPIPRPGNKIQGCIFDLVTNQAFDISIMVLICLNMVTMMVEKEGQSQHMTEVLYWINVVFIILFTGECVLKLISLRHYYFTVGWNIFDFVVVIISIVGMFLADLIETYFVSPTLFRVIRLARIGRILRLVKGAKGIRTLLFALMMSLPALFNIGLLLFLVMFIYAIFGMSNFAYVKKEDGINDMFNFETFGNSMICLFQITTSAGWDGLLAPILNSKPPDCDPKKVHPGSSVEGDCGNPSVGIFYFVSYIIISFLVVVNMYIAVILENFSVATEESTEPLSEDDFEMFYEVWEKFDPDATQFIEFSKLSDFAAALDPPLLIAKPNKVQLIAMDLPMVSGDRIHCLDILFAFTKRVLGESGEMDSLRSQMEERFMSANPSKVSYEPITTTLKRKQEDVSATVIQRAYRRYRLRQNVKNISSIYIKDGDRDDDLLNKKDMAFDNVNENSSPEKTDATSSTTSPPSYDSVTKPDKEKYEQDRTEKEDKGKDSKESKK
UniProt Q14524, whole entry: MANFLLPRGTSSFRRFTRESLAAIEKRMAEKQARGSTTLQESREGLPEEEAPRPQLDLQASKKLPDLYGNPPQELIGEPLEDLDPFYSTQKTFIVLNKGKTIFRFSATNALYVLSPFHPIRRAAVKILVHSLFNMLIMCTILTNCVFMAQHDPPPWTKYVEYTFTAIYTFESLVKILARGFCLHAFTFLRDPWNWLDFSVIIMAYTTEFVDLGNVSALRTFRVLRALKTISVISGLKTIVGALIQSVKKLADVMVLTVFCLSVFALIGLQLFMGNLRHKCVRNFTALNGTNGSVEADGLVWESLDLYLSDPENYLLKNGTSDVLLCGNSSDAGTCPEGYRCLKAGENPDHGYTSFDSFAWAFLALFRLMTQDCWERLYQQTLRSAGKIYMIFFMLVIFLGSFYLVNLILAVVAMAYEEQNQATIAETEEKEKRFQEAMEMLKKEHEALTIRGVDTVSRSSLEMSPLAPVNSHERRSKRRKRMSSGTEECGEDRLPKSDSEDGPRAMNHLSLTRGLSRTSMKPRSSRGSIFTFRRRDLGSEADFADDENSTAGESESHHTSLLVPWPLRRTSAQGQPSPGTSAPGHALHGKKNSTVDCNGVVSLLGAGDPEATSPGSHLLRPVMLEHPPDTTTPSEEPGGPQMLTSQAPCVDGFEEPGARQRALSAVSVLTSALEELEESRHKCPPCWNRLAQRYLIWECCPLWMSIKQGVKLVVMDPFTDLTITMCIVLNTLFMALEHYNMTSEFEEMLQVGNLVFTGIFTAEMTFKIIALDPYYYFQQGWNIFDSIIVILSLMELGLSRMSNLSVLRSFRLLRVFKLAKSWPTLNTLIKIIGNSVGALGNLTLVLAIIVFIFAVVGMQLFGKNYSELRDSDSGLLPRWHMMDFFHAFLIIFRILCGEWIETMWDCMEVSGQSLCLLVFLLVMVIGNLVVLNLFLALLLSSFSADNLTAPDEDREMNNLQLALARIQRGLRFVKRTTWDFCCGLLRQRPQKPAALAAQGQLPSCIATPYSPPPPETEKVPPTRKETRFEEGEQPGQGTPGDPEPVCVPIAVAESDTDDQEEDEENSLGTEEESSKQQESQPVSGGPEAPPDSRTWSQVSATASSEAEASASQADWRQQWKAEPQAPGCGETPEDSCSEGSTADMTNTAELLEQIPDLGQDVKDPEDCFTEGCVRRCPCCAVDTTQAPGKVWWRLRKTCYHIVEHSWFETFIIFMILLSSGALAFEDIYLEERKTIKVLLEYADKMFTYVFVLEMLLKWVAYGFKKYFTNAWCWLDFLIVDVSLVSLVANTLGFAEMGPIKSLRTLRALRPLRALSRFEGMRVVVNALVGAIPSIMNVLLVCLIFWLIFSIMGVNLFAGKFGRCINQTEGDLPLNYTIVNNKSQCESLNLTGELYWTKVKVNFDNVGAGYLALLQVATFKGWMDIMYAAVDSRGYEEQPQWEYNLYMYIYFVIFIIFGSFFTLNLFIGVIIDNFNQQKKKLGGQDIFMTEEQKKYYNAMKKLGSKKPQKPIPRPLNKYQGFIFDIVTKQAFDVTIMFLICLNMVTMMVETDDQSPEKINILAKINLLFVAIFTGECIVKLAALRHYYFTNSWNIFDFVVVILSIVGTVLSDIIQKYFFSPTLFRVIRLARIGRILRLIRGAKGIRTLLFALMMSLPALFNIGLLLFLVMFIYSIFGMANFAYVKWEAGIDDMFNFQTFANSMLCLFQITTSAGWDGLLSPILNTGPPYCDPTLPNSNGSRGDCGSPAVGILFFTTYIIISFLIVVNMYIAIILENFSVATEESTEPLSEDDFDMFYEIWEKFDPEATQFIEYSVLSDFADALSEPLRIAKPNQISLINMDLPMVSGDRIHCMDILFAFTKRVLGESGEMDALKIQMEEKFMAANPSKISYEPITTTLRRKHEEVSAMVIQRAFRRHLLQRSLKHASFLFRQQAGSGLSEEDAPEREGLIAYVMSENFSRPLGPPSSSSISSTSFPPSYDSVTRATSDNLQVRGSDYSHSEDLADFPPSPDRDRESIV
UniProt Q99250, whole entry: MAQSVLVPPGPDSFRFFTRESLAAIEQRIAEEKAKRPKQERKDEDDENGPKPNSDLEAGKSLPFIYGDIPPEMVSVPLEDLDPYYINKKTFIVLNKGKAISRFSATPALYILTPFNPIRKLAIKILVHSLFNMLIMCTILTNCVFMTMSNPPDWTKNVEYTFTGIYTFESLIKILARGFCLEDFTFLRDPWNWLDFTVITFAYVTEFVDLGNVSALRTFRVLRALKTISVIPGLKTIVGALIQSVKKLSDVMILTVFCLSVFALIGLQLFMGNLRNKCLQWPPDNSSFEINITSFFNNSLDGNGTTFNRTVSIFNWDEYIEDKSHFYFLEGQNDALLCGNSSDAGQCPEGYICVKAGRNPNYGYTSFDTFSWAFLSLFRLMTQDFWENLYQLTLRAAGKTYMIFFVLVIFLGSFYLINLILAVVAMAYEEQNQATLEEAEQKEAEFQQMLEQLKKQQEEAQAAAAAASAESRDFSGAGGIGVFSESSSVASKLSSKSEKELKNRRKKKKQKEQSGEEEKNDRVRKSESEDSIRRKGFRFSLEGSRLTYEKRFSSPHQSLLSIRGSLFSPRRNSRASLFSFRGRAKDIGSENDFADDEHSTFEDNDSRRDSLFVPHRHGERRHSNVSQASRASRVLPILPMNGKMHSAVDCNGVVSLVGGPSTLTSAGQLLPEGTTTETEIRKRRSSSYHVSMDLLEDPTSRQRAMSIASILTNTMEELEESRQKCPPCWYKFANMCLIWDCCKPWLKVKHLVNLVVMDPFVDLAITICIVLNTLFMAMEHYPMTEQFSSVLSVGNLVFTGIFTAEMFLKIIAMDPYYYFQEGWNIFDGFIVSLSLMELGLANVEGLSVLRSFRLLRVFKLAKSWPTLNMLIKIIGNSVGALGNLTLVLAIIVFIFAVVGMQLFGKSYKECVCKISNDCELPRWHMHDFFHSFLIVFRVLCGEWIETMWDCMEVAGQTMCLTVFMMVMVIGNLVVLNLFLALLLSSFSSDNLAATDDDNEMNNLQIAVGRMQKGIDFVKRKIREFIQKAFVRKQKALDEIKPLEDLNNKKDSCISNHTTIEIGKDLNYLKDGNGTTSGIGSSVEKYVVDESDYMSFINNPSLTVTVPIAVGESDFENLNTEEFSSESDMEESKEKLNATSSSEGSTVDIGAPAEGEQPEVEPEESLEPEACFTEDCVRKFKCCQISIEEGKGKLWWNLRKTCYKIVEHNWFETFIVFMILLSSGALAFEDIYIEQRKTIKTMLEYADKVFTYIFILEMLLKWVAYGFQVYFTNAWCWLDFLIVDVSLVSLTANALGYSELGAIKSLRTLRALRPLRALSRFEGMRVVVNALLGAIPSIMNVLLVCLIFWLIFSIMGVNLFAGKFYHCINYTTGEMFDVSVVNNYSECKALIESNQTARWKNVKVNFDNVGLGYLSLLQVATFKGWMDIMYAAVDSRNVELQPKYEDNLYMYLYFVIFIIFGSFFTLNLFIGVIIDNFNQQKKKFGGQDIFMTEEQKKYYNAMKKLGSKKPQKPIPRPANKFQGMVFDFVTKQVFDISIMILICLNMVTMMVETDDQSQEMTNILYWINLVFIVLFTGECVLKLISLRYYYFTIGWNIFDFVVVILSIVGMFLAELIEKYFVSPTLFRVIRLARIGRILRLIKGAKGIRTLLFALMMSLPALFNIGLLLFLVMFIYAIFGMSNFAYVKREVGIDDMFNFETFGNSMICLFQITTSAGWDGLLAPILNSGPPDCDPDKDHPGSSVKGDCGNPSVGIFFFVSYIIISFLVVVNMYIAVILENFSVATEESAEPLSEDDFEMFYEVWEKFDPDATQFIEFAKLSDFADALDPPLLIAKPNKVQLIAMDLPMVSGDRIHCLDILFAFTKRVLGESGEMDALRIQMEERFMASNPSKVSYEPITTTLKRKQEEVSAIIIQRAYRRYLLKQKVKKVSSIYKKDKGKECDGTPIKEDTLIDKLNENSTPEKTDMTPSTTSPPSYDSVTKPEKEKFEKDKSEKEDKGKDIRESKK

What was measured:
human Nav.1.7 = human Nav.1.7 (Homo sapiens, UniProt Q15858); experiment: Nav1.7 spiking HEK assay on Swarm
human Nav1.5 = human Nav1.5 (Homo sapiens, UniProt Q14524)
human Nav1.2 = molecular target: T1, human Nav1.2 (Homo sapiens, UniProt Q99250); experiment: Nav1.2 spiking HEK assay on Swarm; format: cell-based; conditions: 8 mM bath [K+]; mean spike areas under TP1, TP8, TP10
T1 construct: expressed in transfected cells

Nav1.5 = conditions: read-out: Nav1.5 Ionworks (IC50); cited from earlier work

Structure (SMILES): CSCC[C@@H]1NC(=O)CNC(=O)[C@H](CCC(=O)O)NC(=O)[C@@H]2CSSC[C@H](NC(=O)[C@H](Cc3ccc(O)cc3)NC(=O)[C@@H]3CCCN3C(=O)CN)C(=O)N[C@@H](CCC(N)=O)C(=O)N[C@@H](CCCCN)C(=O)N[C@@H](Cc3c[nH]c4ccccc34)C(=O)N[C@@H](CCSC)C(=O)N[C@@H](CCC(N)=O)C(=O)N[C@@H]([C@@H](C)O)C(=O)N[C@H]3CSSC[C@H](NC(=O)[C@H](C(C)C)NC1=O)C(=O)N[C@@H](CCCNC(=N)N)C(=O)N[C@@H](CC(C)C)C(=O)N[C@@H](Cc1c[nH]c4ccccc14)C(=O)N[C@H](C(=O)N[C@@H](CCCCN)C(=O)N[C@@H](CCCCN)C(=O)N[C@@H](CCCCN)C(=O)N[C@@H](CC(C)C)C(=O)N[C@@H](CC(C)C)C(=O)O)CSSC[C@H](NC(=O)[C@H](CCCCN)NC(=O)[C@H](CCCNC(=N)N)NC(=O)[C@H](CCC(=O)O)NC(=O)[C@H](CO)NC(=O)[C@H](CC(=O)O)NC3=O)C(=O)N2 [JNJ63955918]
- State dependence (Kr/Ki) (human Nav.1.7): less than 10 fold
- State dependence (ratio of Nav1.7 IC50 at TP1 at 4 mM K+ over TP10 IC50 at 8 mM K+) (human Nav.1.7): 6.1
- IC50 (human Nav1.5): 6.26 µM

Structure (SMILES): CCN(CC)CC(=O)Nc1c(C)cccc1C [Lidocaine]
- IC50 (human Nav1.2): 47.2 µM

Structure (SMILES): Cc1cc2c(s1)Nc1ccccc1N=C2N1CCN(C)CC1 [Olanzapine]
- IC50 (Nav1.5): 39 µM
